Experimental data published in patent US20230256108A1, “A DRUG CONJUGATE AND APPLICATIONS THEREOF” (GENEQUANTUM HEALTHCARE (SUZHOU) CO., LTD., priority 2019, published 2023).

Target: T1, ErbB2/Her2 receptor on the cell surface (Homo sapiens, UniProt P04626)
T1 construct: HER2 high-expressing human breast cancer cells HCC1954, SK-BR-3, and HER2 low-expressing cells MCF7 were made into single cell suspensions; HTB-30 (SK-BR-3); HTB-22 (MCF7); host or cells: HCC1954, SK-BR-3, MCF7
Test: FACS affinity to cell surface ErbB2/Her2
Type: binding
Conditions: 6.25 nM; HCC1954, SK-BR-3 (HER2 high) and MCF7 (HER2 low) cells; compared with Pertuzumab
Procedure: 1) HER2 high-expressing human breast cancer cells HCC1954, SK-BR-3, and HER2 low-expressing cells MCF7 were made into single cell suspensions. 5×10^5 cells are used for each test. 6.25 nM Pertuzumab, P-LCCTL-HC, and DG102 were added respectively. Incubation was conducted for 60 min at 4° C. Washing was conducted with two repeats: adding 1 ml of PBS washing solution containing 1% BSA, conducting centrifuge at 1000 rpm for 5 min, removing the supernatant.
2) To cells incubated with Pertuzumab, P-LCCTL-HC or DG102, 100 µl diluted solution of FITC-goat anti-human IgG antibody was added, respectively. Incubation was conducted for 30 min at 4° C. in the dark. Washing was conducted with two repeats: adding 1 ml of washing solution, conducting centrifuge at 1000 rpm for 5 min, removing the supernatant. The cells were resuspended in 500 µl PBS, passed through a 300 mesh screen, stored on ice in the dark. FACS (fluorescence-activated cell sorting) assay were performed on CytoFLEX S (FIG. 2 to FIG. 4).

Substance: P-LCCTL-HC: based on Pertuzumab, GALPETGG introduced at the C-terminal of the light chain (SEQ ID NO: 1, 2)
- affinity to the ErbB2/Her2 receptor on the cell surface (FACS): do not show significant difference
